# Legend:
# [1] = test system: Rattus norvegicus; assay: In vivo binding specificity the compound in rat striatum at 30 min of intravenous injection.
# [2] = test system: Rattus norvegicus; assay: In vivo binding specificity the compound in rat striatum at 60 min of intravenous injection.
# [3] = test system: Rattus norvegicus; assay: Evaluation of the biodistribution ofcompound in bone of female Sprague-Dawley rats at 5 min of intravenous injection.; details: in vivo, Bone element
# [4] = test system: Rattus norvegicus; assay: Evaluation of the biodistribution ofcompound in bone of female Sprague-Dawley rats at 60 min of intravenous injection.; details: in vivo, 1 h, Bone element
# [5] = test system: Rattus norvegicus; assay: Evaluation of the biodistribution ofcompound in blood of female Sprague-Dawley rats at 5 min of intravenous injection.; details: in vivo
# [6] = test system: Rattus norvegicus; assay: Evaluation of the biodistribution ofcompound in bone of female Sprague-Dawley rats at 30 min of intravenous injection.; details: in vivo, 0.5 h, Bone element
# [7] = test system: Rattus norvegicus; assay: Evaluation of the biodistribution ofcompound in brain of female Sprague-Dawley rats at 30 min of intravenous injection.; details: in vivo, 0.5 h
# [8] = test system: Rattus norvegicus; assay: Evaluation of the biodistribution ofcompound in blood of female Sprague-Dawley rats at 30 min of intravenous injection.; details: in vivo, 0.5 h
# [9] = test system: Rattus norvegicus; assay: Evaluation of the biodistribution ofcompound in brain of female Sprague-Dawley rats at 60 min of intravenous injection.; details: in vivo, 1 h
# [10] = test system: Rattus norvegicus; assay: Evaluation of the biodistribution ofcompound in liver of female Sprague-Dawley rats at 30 min of intravenous injection.; details: in vivo, 0.5 h
# [11] = test system: Rattus norvegicus; assay: Evaluation of the biodistribution ofcompound in liver of female Sprague-Dawley rats at 60 min of intravenous injection.; details: in vivo, 1 h
# [12] = test system: Rattus norvegicus; assay: Evaluation of the biodistribution ofcompound in muscle of female Sprague-Dawley rats at 5 min of intravenous injection.; details: in vivo, Muscle tissue
# [13] = test system: Rattus norvegicus; assay: Evaluation of the biodistribution ofcompound in kidney of female Sprague-Dawley rats at 30 min of intravenous injection.; details: in vivo, 0.5 h
# [14] = test system: Rattus norvegicus; assay: Evaluation of the biodistribution ofcompound in muscle of female Sprague-Dawley rats at 30 min of intravenous injection.; details: in vivo, 0.5 h, Muscle tissue
# [15] = test system: Rattus norvegicus; assay: Evaluation of the biodistribution ofcompound in striatum of female Sprague-Dawley rats at 5 min of intravenous injection.; details: in vivo
# [16] = test system: Rattus norvegicus; assay: Evaluation of the biodistribution ofcompound in striatum of female Sprague-Dawley rats at 30 min of intravenous injection.; details: in vivo, 0.5 h
# [17] = test system: Rattus norvegicus; assay: Evaluation of the biodistribution ofcompound in striatum of female Sprague-Dawley rats at 60 min of intravenous injection.; details: in vivo, 1 h
# [18] = test system: Rattus norvegicus; assay: Evaluation of the biodistribution ofcompound in cerebellum of female Sprague-Dawley rats at 30 min of intravenous injection.; details: in vivo, 0.5 h
# [19] = test system: Rattus norvegicus; assay: Evaluation of the biodistribution ofcompound in cerebellum of female Sprague-Dawley rats at 60 min of intravenous injection.; details: in vivo, 1 h
# [20] = test system: Rattus norvegicus; assay: Evaluation of the biodistribution ofcompound in frontal cortex of female Sprague-Dawley rats at 30 min of intravenous injection.; details: in vivo, 0.5 h
# [21] = test system: Rattus norvegicus; assay: Evaluation of the biodistribution ofcompound in bone of female Sprague-Dawley rats at 5 min of intravenous injection with naloxone; details: in vivo, Bone element
# [22] = test system: Rattus norvegicus; assay: Evaluation of the biodistribution ofcompound in blood of female Sprague-Dawley rats at 5 min of intravenous injection with naloxone; details: in vivo
# [23] = test system: Rattus norvegicus; assay: Evaluation of the biodistribution ofcompound in bone of female Sprague-Dawley rats at 30 min of intravenous injection with naloxone; details: in vivo, 0.5 h, Bone element
# [24] = test system: Rattus norvegicus; assay: Evaluation of the biodistribution ofcompound in liver of female Sprague-Dawley rats at 5 min of intravenous injection with naloxone; details: in vivo
# [25] = test system: Rattus norvegicus; assay: Evaluation of the biodistribution ofcompound in blood of female Sprague-Dawley rats at 30 min of intravenous injection with naloxone; details: in vivo, 0.5 h
# [26] = test system: Rattus norvegicus; assay: Evaluation of the biodistribution ofcompound in muscle of female Sprague-Dawley rats at 5 min of intravenous injection with naloxone; details: in vivo, Muscle tissue
# [27] = test system: Rattus norvegicus; assay: Evaluation of the biodistribution ofcompound in kidney of female Sprague-Dawley rats at 30 min of intravenous injection with naloxone; details: in vivo, 0.5 h
# [28] = test system: Rattus norvegicus; assay: Evaluation of the biodistribution ofcompound in muscle of female Sprague-Dawley rats at 30 min of intravenous injection with naloxone; details: in vivo, 0.5 h, Muscle tissue
# [29] = test system: Rattus norvegicus; assay: Evaluation of the biodistribution ofcompound in frontal cortex of female Sprague-Dawley rats at 30 min of intravenous injection with naloxone; details: in vivo, 0.5 h
# [30] = Ratio of activity localized in the cortex (percent injected dose/gram) to that localized in the cerebellum (percent injected dose/gram) at 5 min
# [31] = Ratio of activity localized in the cortex (percent injected dose/gram) to that localized in the cerebellum (percent injected dose/gram) at 30 min
# [32] = Ratio of activity localized in the striatum (percent injected dose/gram) to that localized in the cerebellum (percent injected dose/gram) at 5 min
# [33] = species: Rattus norvegicus; assay: Ratio of activity localized in the cortex (percent injected dose/gram) to that localized in the cerebellum (percent injected dose/gram) at 5 min with naloxone
# [34] = species: Rattus norvegicus; assay: Ratio of activity localized in the striatum (percent injected dose/gram) to that localized in the cerebellum (percent injected dose/gram) at 5 min with naloxone
# [35] = species: Rattus norvegicus; assay: Ratio of activity localized in the striatum (percent injected dose/gram) to that localized in the cerebellum (percent injected dose/gram) at 30 min with naloxone
# [36] = Specificity of binding in vivo was measured as the ratio of activity localized in the striatum (percent injected dose/gram) to that localized in the cerebellum (percent injected dose/gram) at 60 min
smiles,measurement,setting,value
CO[C@]12CC[C@@]3(C[C@@H]1C(C)(C)O)[C@H]1Cc4ccc(O)c5c4[C@@]3(CCN1CCC[18F])[C@H]2O5,ID (per g of tissue),[1],0.342%
same,ID (per g of tissue),[2],0.09%
same,ID (per g of organ),[3],4.94%
same,ID (per g of organ),[4],2.89%
same,ID (per g of organ),[5],4.69%
same,ID (per g of organ),[6],3.73%
same,ID (per g of organ),[7],0.37%
same,ID (per g of organ),[8],1.46%
same,ID (per g of organ),[9],0.094%
same,ID (per g of organ),[10],2.86%
same,ID (per g of organ),[11],0.98%
same,ID (per g of organ),[12],5.94%
same,ID (per g of organ),[13],0.2%
same,ID (per g of organ),[14],3.4%
same,ID (per g of tissue),[15],1.46%
same,ID (per g of tissue),[16],0.35%
same,ID (per g of tissue),[17],0.103%
same,ID (per g of tissue),[18],0.106%
same,ID (per g of tissue),[19],0.036%
same,ID (per g of tissue),[20],0.255%
same,ID (per g of organ),[21],3.43%
same,ID (per g of organ),[22],2.89%
same,ID (per g of organ),[23],2.21%
same,ID (per g of organ),[24],6.59%
same,ID (per g of organ),[25],1.17%
same,ID (per g of organ),[26],4.92%
same,ID (per g of organ),[27],0.18%
same,ID (per g of organ),[28],2.97%
same,ID (per g of tissue),[29],0.08%
same,Ratio,[30],1.71%
same,Ratio,[31],2.44%
same,Ratio,[32],2.15%
same,Ratio,[33],1.05%
same,Ratio,[34],1.32%
same,Ratio,[35],1.13%
same,Ratio,[36],2.84%

# Source: ChEMBL document CHEMBL1124775 (J Med Chem, 1990)
